Assay results: ChEMBL document CHEMBL1145576, “Synthesis and structure-activity relationship of aminopyrimidine IKK2 inhibitors” (Bioorg Med Chem Lett, 2008)

Experiment: Selectivity ratio of IC50 for IKK1 to IC50 for IKK2

Ratio IC50	SMILES
20	O=S(=O)(c1ccc(-c2ccnc(Nc3ccc4ncsc4c3)n2)cc1)N1CCSCC1
> 18	O=S(=O)(c1ccc(-c2ccnc(Nc3ccc4ncsc4c3)n2)cc1)N1CCCC1
18	O=S(=O)(c1ccc(-c2ccnc(Nc3ccc4ncsc4c3)n2)cc1)N1CCOCC1
5	O=C(Nc1ccc(-c2ccnc(Nc3ccc4ncsc4c3)n2)cc1)C1CCNCC1
